Assay results reported in patent US4988691A (priority 1989, dated 1991).

Protein sequences, listed by entry. Tags and fused reporters are not part of them. Residues count along the entry.
UniProt H0W1Z3, 1-590: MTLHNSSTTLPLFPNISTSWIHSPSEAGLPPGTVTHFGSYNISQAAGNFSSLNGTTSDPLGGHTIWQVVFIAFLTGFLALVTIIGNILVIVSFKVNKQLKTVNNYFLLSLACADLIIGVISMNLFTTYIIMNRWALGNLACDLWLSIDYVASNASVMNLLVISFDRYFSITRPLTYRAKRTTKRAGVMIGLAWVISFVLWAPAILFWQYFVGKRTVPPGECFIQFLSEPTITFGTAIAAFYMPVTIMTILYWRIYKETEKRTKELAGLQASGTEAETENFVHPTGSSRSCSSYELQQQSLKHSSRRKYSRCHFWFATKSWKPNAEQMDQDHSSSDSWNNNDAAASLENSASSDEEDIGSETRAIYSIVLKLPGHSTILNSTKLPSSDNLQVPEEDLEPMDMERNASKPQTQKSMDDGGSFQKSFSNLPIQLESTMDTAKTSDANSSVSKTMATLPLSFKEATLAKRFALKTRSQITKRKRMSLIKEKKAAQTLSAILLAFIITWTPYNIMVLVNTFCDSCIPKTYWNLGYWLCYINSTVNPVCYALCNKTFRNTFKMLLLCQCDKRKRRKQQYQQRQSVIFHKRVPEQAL

Target: T1, contracturing effect of acetylcholine (Cavia porcellus, UniProt H0W1Z3)
T1 construct: Segments measuring 5-6 cm were drawn form the end portion of the small intestine; from tissue; host or cells: guinea pig terminal small intestine (ileum)
Test: anticholinergic activity in vitro (contracturing effect of acetylcholine on isolated guinea pig small intestine)
Set-up: species or system Guinea pigs

For CN1[C@@H]2CC[C@H]1C[C@@H](OC(=O)C(CO)c1ccccc1)C2 (stereo partly shown) [Atropine, reference compound], which Kb is on record?
The Kb was 0.794 nM.
